Molecular target: DNMT3A MTase domain ([…]), WT (human)
Assay: SEC; Superdex 200 Increase 10/300 GL, 100 µL of 0.5 mg/mL protein, 20 mM Hepes pH 7.2, 250 mM NaCl, 5% glycerol, 5 mM DTT; homo-oligomeric DNMT3A MTase compared with the DNMT3A MTase-DNMT3L complex
Settings: both partners purified

B1: DNMT3L C-terminal domain (residues 178-386) (domain or fragment, UniProt Q9UJW3 178-386, looked up)
chain: MFETVPVWRRQPVRVLSLFEDIKKELTSLGFLESGSDPGQLKHVVDVTDTVRKDVEEWGPFDLVYGATPPLGHTCDRPPSWYLFQFHRLLQYARPKPGSPRPFFWMFVDNLVLNKEDLDVASRFLEMEPVTIPDVHGGSLQNAVRVWSNIPAIRSRHWALVSEEELSLLAQNKQSSKLAAKWPTKLVKNCFLPLREYFKYFSTELTSSL
notes: DNMT3L C-terminal domain, residues 178-386; Run on the column as a purified complex with the DNMT3A MTase domain; source: purified
- binding result: binds

Source: publication PMC11006857, “Structure-guided functional suppression of AML-associated DNMT3A hotspot mutations” (Nature Communications, 2024)
